Results as given in patent US5444055A, “17-hydroxyiminomethyl-5-β, 14 β-androstane derivatives active on the cardiovascular system, processes for their preparation and pharmaceutical compositions containing same” (Sigma-Tau Industrie Farmaceutiche Riunite S.p.A., priority 1992, dated 1995).

Legend:
Na^+,K^+ -ATPase [1] = target: T1, Na^+,K^+ -ATPase (Homo sapiens, UniProt P05023); assay: displacement of specific ^3 H-ouabain binding from purified Na^+,K^+ -ATPase receptor
Na^+,K^+ -ATPase [2] = target: T1, Na^+,K^+ -ATPase; assay: inhibition of the activity of purified Na^+,K^+ -ATPase (hydrolysis of ^32 P-ATP); assay type: biochemical; conditions: ^32 P-ATP hydrolysis

## C[C@]12CC[C@H](OCCCN3CCCC3)C[C@H]1CC[C@@H]1[C@@H]2CC[C@]2(C)[C@@H](/C=N/O)CC[C@]12O
Na^+,K^+ -ATPase [1]
  Binding ^3 H-Ouab. Displacement -log IC50: 5.7
Na^+,K^+ -ATPase [2]
  Inhibitory Activity -log IC50: 4.5

## C[C@]12CC[C@H](OCCN3CCCC3)C[C@H]1CC[C@@H]1[C@@H]2CC[C@]2(C)[C@@H](/C=N/O)CC[C@]12O
Na^+,K^+ -ATPase [1]
  Binding ^3 H-Ouab. Displacement -log IC50: 5.9
Na^+,K^+ -ATPase [2]
  Inhibitory Activity -log IC50: 4.6

## C[C@]12CC[C@H](OCCCN)C[C@H]1CC[C@@H]1[C@@H]2CC[C@]2(C)[C@@H](/C=N/O)CC[C@]12O
Na^+,K^+ -ATPase [1]
  Binding ^3 H-Ouab. Displacement -log IC50: 6.0
Na^+,K^+ -ATPase [2]
  Inhibitory Activity -log IC50: 4.6

## C[C@]12CC[C@H](OCCN)C[C@H]1CC[C@@H]1[C@@H]2CC[C@]2(C)[C@@H](/C=N/O)CC[C@]12O
Na^+,K^+ -ATPase [1]
  Binding ^3 H-Ouab. Displacement -log IC50: 5.8
Na^+,K^+ -ATPase [2]
  Inhibitory Activity -log IC50: 4.6
